Values quoted from earlier work in PubChem BioAssay AID977610.

What was measured:
Test in all cases: PubChem AID 977610
IGF1RK-0P = conditions: PDB protein-ligand complexes, literature Ki; protein: IGF1RK-0P; PDB entry 3D94
IDI-1 = conditions: PDB protein-ligand complexes, literature Ki; protein: IDI-1; PDB entry 2VNP
CrtM = conditions: PDB protein-ligand complexes, literature Ki; protein: CrtM; PDB entry 2ZCQ
NanB = conditions: PDB protein-ligand complexes, literature Ki; protein: NanB; PDB entry 2VW2
factor Xa = conditions: PDB protein-ligand complexes, literature Ki; protein: factor Xa; PDB entry 2VH6
fXa = conditions: PDB protein-ligand complexes, literature Ki; protein: fXa; PDB entry 2VH0
human PNP = conditions: PDB protein-ligand complexes, literature Ki; protein: human PNP; PDB entry 3BGS

## CN1CCN(C2CC(c3nc(-c4ccc5ccc(-c6ccccc6)nc5c4)c4c(N)nccn34)C2)CC1 (configuration not stated)
IGF1RK-0P
  Ki: 157 nM

## CN(C)CCOP(=O)(O)OP(=O)(O)O
IDI-1
  Ki: 0.12 nM

## O=P(O)(O)[C@@H](CCCc1cccc(Oc2ccccc2)c1)S(=O)(=O)O
CrtM
  Ki: 1.5 nM

## O=S(=O)(O)CCNC1CCCCC1
NanB
  Ki: 500000 nM

## CS(=O)(=O)c1ccccc1-c1ccc(N2CC[C@H](NS(=O)(=O)/C=C/c3ccc(Cl)s3)C2=O)c(F)c1
Factor Xa
  Ki: 0.2 nM

## CN(C)Cc1nccn1-c1ccc(N2CC[C@H](NS(=O)(=O)/C=C/c3ccc(Cl)s3)C2=O)c(F)c1
fXa
  Ki: 3.1 nM

## O=c1[nH]cnc2c(CN3C[C@@H](CO)[C@H](O)C3)c[nH]c12
Human PNP
  Ki: 0.38 nM
